Experimental data: BindingDB's records for patent US11066414 (Gilead Sciences, 2021)

Amino acid sequences for entries named in this document (tags omitted).
UniProt P41279, whole entry: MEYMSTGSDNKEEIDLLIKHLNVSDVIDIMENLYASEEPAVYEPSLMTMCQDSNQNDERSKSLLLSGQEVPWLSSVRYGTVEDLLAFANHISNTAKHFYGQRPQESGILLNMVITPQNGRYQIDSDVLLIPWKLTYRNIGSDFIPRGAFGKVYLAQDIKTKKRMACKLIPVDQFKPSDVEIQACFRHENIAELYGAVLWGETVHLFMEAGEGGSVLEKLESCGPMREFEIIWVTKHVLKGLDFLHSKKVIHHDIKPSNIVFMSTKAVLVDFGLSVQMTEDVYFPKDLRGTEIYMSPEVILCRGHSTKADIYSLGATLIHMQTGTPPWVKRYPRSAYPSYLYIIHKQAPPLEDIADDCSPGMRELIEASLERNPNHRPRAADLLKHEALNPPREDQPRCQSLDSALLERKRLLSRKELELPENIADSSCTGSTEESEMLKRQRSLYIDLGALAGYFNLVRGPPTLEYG

biological target: Mitogen-activated protein kinase kinase kinase 8 (Homo sapiens, UniProt P41279); assay: High Throughput Biochemical Assay; conditions: IC50 (nM)
Procedure: EGFR activity was measured using KinEASE (Cisbio), a time-resolved fluorescence resonance energy transfer (TR-FRET) immunoassay. In this assay, EGFR-catalyzes the phosphorylation of a universal Tyrosine kinase peptide substrate labeled with XL665. Europium conjugated phosphor-tyrosine specific antibody binds the resulting phosphorylated peptide. Formation of phosphorylated peptide is quantified by TR-FRET with Europium as the donor and XL665 the acceptor. The assay was performed in two main steps. The first step is the kinase reaction step and the second step is the detection step with TR-FRET reagents.

IC50 [nM]	SMILES
14	CC(C)N1C=C([C@@H](Nc2cc(Cl)c3ncc(C#N)c(Nc4ccc(F)c(Cl)c4)c3c2)c2cncc(C(=O)N3CCCC3)c2)NN1 [US11066414, Compound 21]
12	CC(C)(C)CNc1c(C#N)cnc2c(Br)cc(N[C@H](C3=CN(C4CC4)NN3)c3cccc4c3CCN4)cc12 [US11066414, Compound 24]
12	CC(C)N1C=C([C@@H](Nc2cc(Cl)c3ncc(C#N)c(Nc4ccc(F)c(Cl)c4)c3c2)c2cccc3c2CNN3C)NN1 [US11066414, Compound 28]
25	N#Cc1cnc2c(Cl)cc(N[C@H](C3=CNNN3)c3cccc4c3CN(C3COC3)C4)cc2c1Nc1ccc(F)c(Cl)c1 [US11066414, Compound 47]
86	N#Cc1cnc2c(Cl)cc(N[C@H](C3=CN(C4COC4)NN3)c3cnc(Cl)cc3Cl)cc2c1Nc1ccc(F)c(Cl)c1 [US11066414, Compound 323]
34	CC(C)(C)N1CCC(N2C=C([C@@H](Nc3cc(Cl)c4ncc(C#N)c(Nc5ccc(F)c(Cl)c5)c4c3)c3cnc(Cl)cc3Cl)NN2)CC1 [US11066414, Compound 326]
15	N#Cc1cnc2c(Cl)cc(N[C@H](C3=CN(CCO)NN3)c3cc(Br)cnc3Cl)cc2c1Nc1ccc(F)c(Cl)c1 [US11066414, Compound 327]
37	CCN1CCC(N2C=C([C@H](c3cscn3)N(CC)c3cc(Cl)c4ncc(C#N)c(Nc5ccc(F)c(Cl)c5)c4c3)NN2)CC1 [US11066414, Compound 374]
35	CC(C)(C)CNc1c(C#N)cnc2c(Cl)cc(N[C@H](C3=CN(C(C)(C)C(F)F)NN3)c3cccc4cnccc34)cc12 [US11066414, Compound 683]
14	CC(C)(C)CNc1c(C#N)cnc2c(Cl)cc(N[C@H](C3=CN(C(C)(C)CF)NN3)c3cccc4cnccc34)cc12 [US11066414, Compound 684]
